Test results from article PMC13199644, “Optimized Quantitative Bacterial Two-Hybrid (qB2H) for Protein–Protein Interaction Assessment” (Computational and Structural Biotechnology Journal, 2026).

Chains of the proteins cited; added tags and fusions are not shown. Lines headed by an entry give the natural chain unless they say otherwise; changes in a name come on top. Residues count along the entry.
UniProt Q12306, 2-97: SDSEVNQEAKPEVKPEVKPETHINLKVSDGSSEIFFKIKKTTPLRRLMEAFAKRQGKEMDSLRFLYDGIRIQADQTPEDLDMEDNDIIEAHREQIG
UniProt Q6VMQ6: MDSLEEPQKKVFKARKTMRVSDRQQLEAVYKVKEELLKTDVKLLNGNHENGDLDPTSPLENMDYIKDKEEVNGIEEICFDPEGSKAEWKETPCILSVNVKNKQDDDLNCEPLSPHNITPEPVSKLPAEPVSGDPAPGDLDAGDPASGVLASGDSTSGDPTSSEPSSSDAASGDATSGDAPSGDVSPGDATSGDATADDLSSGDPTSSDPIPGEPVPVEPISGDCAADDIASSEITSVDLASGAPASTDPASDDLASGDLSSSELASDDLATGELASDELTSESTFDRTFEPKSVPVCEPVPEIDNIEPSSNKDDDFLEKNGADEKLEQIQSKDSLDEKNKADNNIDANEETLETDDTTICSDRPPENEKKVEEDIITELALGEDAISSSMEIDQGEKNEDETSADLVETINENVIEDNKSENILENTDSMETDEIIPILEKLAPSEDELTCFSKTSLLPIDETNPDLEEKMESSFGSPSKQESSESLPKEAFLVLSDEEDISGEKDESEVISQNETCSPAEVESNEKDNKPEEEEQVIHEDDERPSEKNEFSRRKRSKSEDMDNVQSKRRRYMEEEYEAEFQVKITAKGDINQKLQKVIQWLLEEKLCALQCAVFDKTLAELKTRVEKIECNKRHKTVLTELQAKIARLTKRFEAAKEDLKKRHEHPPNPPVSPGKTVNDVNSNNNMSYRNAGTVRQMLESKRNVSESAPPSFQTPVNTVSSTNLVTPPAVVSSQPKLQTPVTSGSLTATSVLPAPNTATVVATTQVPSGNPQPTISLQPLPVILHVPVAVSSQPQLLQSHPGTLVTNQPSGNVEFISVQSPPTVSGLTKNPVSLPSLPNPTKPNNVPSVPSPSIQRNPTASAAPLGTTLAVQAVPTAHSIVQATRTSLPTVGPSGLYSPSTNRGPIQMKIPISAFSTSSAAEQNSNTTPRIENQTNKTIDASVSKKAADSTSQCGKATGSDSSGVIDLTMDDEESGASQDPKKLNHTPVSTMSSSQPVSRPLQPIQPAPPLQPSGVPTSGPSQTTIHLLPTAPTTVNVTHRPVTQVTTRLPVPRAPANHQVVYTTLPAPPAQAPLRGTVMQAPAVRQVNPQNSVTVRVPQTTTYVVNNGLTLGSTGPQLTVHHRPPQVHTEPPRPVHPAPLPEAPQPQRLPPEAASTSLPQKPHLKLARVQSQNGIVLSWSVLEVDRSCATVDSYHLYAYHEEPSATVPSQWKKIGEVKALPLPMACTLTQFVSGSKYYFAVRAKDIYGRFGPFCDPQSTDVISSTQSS

Molecular target: T1, SMT3 (Saccharomyces cerevisiae, UniProt Q12306)
T1 construct: SMT3; UNIPROT: Q12306; 2-97; Saccharomyces cerevisiae; expressed in transfected cells; host or cells: E. coli BL21(DE3) transformed with VN594 plus a pBRα rpoA-fusion plasmid
Test: qB2H v1 fluorescence, SMT3 (SUMO) vs SUMO-interacting motifs
Assay type: cell-based, Escherichia coli
Settings: BL21(DE3), qB2H v1, cI-SMT3 2-97, IPTG(20µM)
Protocol: Precultures of untransformed (for intrinsic fluorescence evaluation) and transformed SB39 cells were diluted (3 μl into 300 μl of fresh medium) in 2-ml microtubes and grown in ThermoMixer C (Eppendorf; 37 °C at 900 rpm) for 2 h. Cultures with an OD600 of approximately 0.5 were then mixed with 100 μl of the same medium containing 4× inducer concentration. Final inducer concentrations, chosen on the basis of maximal signal output, were 20 μM IPTG for v1 or v2 and 200 μM IPTG plus […] for v3 series. The induced cultures were grown overnight at 18 °C, diluted (1 μl) in freshly filtered (0.22 μm) phosphate-buffered saline buffer (1 ml per OD unit), and analyzed using guava easyCyte HT (488-nm blue laser). The gating for event analysis was set to minimize background noise (fewer than 100 gated events per 10 μl of sterile phosphate-buffered saline). Ten thousand events were collected per culture, and the MFI was recorded. […]
MFI(x) represents the MFI of a given condition or culture. MFI(low) corresponds to the fluorescence produced by SB39 cells cotransformed with VN519 and VN550, indicating no detectable interaction (Kd > 100,000 nM). […]
Interactions involving distinct protein domains and folding variants were assessed using qB2H systems v1, v2, and v3. […]

MCAF1_SIM: SUMO-interacting motif, Q6VMQ6 957-981, Homo sapiens (KATGSDSSGVIDLTMDDEESGASQD; SUMO-interacting motif; UniProt Q6VMQ6 957-981, looked up, fragment)
Norm. MFI: 60.82%
